Results taken from patent US5962314A, “Calcium receptor-active molecules” (priority 1997, dated 1999).

Tests used:
bovine parathyroid cells = test: PTH secretion from bovine parathyroid cells; assay type: cell-based
cyclic AMP = assay type: cell-based, bovine

NCCCNCCCCNCCCN [Spermine]
effect on PTH secretion (bovine parathyroid cells): inhibits PTH secretion; also recorded: inhibited PTH secretion to the same extent as extracellular Ca^2+ | effect on isoproterenol-induced increases in cyclic AMP (cyclic AMP): depressed isoproterenol-induced increases in cyclic AMP

“Also recorded” adds a separate entry of the source.
